Test results taken from paper PMC10267539 (EJNMMI Radiopharmacy and Chemistry, 2023).

System: PSMA-expressing LNCaP prostate tumor xenografts
Conditions: 1 h post-injection

**Q.** Which results are given for O=C(O)CC[C@H](NC(=O)N[C@@H](CCCCNC(=O)c1ccc([18F])nc1)C(=O)O)C(=O)O [[^18F]DCFPyL]?
**A.** kidneys uptake: 118 ± 12.6 %ID/g; liver uptake: 1.83 ± 0.12 %ID/g; salivary glands uptake: 1.27 ± 0.36 %ID/g; spleen uptake: 2.42 ± 1.11 %ID/g; tumor uptake: 10.3 ± 1.28 %ID/g; tumor-to-blood uptake ratio: 16.9 ± 2.93; tumor-to-kidney uptake ratio: 0.09 ± 0.02; tumor-to-liver uptake ratio: 5.69 ± 0.94; tumor-to-muscle uptake ratio: 39.1 ± 13.1
